pIC50: −log10 of the molar value. Values joined by “and” are separate entries in the source; they are usually repeats but may differ in a detail not shown here. Equal values may be shown once.
Tests used:
L1210 [1] = test: Inhibition of growth in L1210 leukemia cells resistant to Tallimustine.
L1210 [2] = test: Inhibition of growth in L1210 leukemia cells resistant to doxorubicin(DX).
L1210 [3] = test: In vitro antitumor activity evaluated against L1210 murine leukemia cell line
L1210 [4] = test: Ratio between IC50 value on resistant cells and sensitive cells; type: functional, Mus musculus; design: reference not given here
Method in brief: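 Murine L1210 leukemia cells, parental and doxorubicin- or tallimustine-resistant sublines, were grown in stationary suspension in RPMI 1640 with 10% FCS, 2 mM glutamine, […] and antibiotics. Exponentially growing cells were exposed continuously for 48 h to graded concentrations from a 1 mg/mL DMSO stock, and survivors were counted electronically. IC50 came from dose-response curves, with duplicate cultures and at least two repeats. RI was the IC50 on resistant cells divided by the IC50 on sensitive cells.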

Row | SMILES | pIC50 (L1210 [1]) | pIC50 (L1210 [2]) | pIC50 (L1210 [3]) | Resistance index (L1210 [4])
1 | Cn1cc(NC(=O)c2cc(NC(=O)c3cc(NC(=O)/C=C/c4ccc(N(CCCl)CCCl)cc4)cn3C)cn2C)cc1C(=O)NCCC(=N)N | 9.96 | 9.89 | 8.02 | –
2 | Cl.Cn1cc(NC(=O)c2cc(NC(=O)c3cc(NC(=O)/C=C/c4ccc(N(CCCl)CCCl)cc4)cn3C)cn2C)cc1C(=O)NCCC(=N)N | – | – | – | 17.6 and 8
3 | Cl.Cn1cc(NC(=O)c2cc(NC(=O)c3cc(NC(=O)c4ccc(N(CCCl)CCCl)cc4)cn3C)cn2C)cc1C(=O)NCCC(=N)N [TALLIMUSTINE CHLORIDE] | 8.92 | 9.38 | – | –

Source: ChEMBL document CHEMBL1133770, “Synthesis and antitumor activity of new benzoheterocyclic derivatives of distamycin A” (J Med Chem, 2000)
